Article PMC9015526, “Mass Spectrometric Assays Reveal Discrepancies in Inhibition Profiles for the SARS‐CoV‐2 Papain‐Like Protease” (Chemmedchem, 2022)

Tests used:
[1] = target: T1, SARS‐CoV‐2 PL^pro (Severe acute respiratory syndrome coronavirus 2, UniProt P0DTD1); experiment: biochemical; details: SPE‐MS IC50
[2] = target: T1, SARS‐CoV‐2 PL^pro

| SMILES | IC50 [1] [µM] | PL^pro inhibition in SPE‐MS assay (in words) [2] |
| --- | --- | --- |
| Cc1coc2c1C(=O)C(=O)c1c-2ccc2c(C)cccc12 [tanshinone I] | > 50 | did not, at least efficiently, inhibit |
| O=c1c2ccccc2[se]n1-c1ccccc1 [ebselen] |  | potently inhibit |
| Cc1ccc(-n2sc3ccccc3c2=O)cc1 [PBIT, 2‐(para‐tolyl)benzo[d]isothiazol‐3(2H)‐one] |  | inhibits PL^pro efficiently |
